Measurements from patent US8969336B2, “Diamino heterocyclic carboxamide compound” (Astellas Pharma Inc., priority 2009, dated 2015).

Amino acid sequences for entries named in this document (tags omitted). Chains listed by the source or under a name are the forms on record and can include a tag or linker.
UniProt Q9UM73, other isoform, or with tags, fused parts or gaps: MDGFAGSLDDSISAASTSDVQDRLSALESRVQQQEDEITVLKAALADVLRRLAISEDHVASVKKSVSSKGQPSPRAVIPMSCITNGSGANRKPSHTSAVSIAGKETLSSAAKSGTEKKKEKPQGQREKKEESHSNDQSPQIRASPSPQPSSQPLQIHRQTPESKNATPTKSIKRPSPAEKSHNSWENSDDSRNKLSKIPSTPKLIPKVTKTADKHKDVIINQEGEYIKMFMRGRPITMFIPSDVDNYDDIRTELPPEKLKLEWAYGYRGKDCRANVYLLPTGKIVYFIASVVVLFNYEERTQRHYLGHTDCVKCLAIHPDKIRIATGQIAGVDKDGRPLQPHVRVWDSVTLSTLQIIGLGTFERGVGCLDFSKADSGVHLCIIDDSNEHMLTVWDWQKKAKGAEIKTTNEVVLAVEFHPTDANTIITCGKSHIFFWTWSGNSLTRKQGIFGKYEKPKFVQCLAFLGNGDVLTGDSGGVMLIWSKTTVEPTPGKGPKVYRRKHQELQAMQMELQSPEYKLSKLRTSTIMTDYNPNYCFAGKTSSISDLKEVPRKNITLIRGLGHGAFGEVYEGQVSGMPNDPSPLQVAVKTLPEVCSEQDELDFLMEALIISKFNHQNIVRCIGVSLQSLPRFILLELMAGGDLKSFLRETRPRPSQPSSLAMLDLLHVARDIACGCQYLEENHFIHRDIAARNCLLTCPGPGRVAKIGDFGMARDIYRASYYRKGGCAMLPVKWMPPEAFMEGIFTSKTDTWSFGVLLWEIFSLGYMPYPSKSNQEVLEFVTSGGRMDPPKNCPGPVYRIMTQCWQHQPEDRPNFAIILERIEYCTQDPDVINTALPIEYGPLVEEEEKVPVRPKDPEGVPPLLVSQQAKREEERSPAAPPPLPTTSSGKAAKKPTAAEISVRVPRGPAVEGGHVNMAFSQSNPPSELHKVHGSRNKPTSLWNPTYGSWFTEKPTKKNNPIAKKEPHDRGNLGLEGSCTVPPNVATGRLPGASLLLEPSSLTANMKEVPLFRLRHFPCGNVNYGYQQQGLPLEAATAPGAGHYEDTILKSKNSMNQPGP

Molecular target: EML4-ALK fusion protein v1 (Homo sapiens (Human), UniProt Q9UM73)
Assay: Inhibitory activity against the kinase activity of EML4-ALK fusion protein (HTRF KinEASE-TK)
Assay type: biochemical
Settings: ATP 100 μM, reaction 1 hour
Text: A recombinant retrovirus was created from expression plasmid FLAG-EML4-ALKv1/pMX-iresCD8 in which cDNA for EML4-ALK fusion protein v1 was integrated, and injected into mouse lymphoid cell line BA/F3 cells. Using a magnetic bead reagent for cell separation and a purification column (anti-CD8 monoclonal antibody immobilized on magnetic beads and a MiniMACS purification column; both are products of Miltenyi Biotec Inc.), cell surface CD8-expressing cells were purified to establish EML4-ALK fusion protein v1-expressing BA/F3 cells. From the cells, EML4-ALK fusion protein v1 was purified and subjected to kinase activity evaluation. EML4-ALK fusion protein v1 was investigated for its phosphorylation activity toward a peptide substrate by using a kinase activity detection kit (HTRF KinEASE-TK; Cisbio Inc.). […] The ATP concentration used was 100 μM.

SMILES	IC50 [nM]
CCc1nc(C(N)=O)c(Nc2ccc(N3CCC(N4CCN(C)CC4)CC3)c(C)c2)nc1NC1CCNCC1 [Example 534, 6-ethyl-3-({3-methyl-4-[4-(4-methylpiperazin-1-yl)piperidin-1-yl]phenyl}amino)-5-(piperidin-4-ylamino)pyrazine-2-carboxamide]	1
COc1cc(Nc2nc(NC3CCOCC3)c(C(C)C)nc2C(N)=O)ccc1N1CCN(C)CC1 [Example 553]	1.4
CCc1nc(C(N)=O)c(Nc2ccc(N3CCOCC3)cc2)nc1N[C@H]1CC[C@H](O)CC1 [Example 357]	17
CCc1nc(C(N)=O)c(Nc2ccc(N3CCC(N4CCN(C)CC4)CC3)c(C)c2)nc1NC1CCN(C)CC1 [Example 544]	1.9

More lines, in order of falling IC50, values ahead:

IC50 [nM]	SMILES
1.7	CCc1nc(C(N)=O)c(Nc2cccc(N3CCN(C)CC3)c2)nc1N[C@H]1CC[C@H](O)CC1 [Example 347]
0.99	CCc1nc(C(N)=O)c(Nc2cccc(S(C)(=O)=O)c2)nc1N[C@H]1CC[C@](C)(O)CC1 [Example 110]
0.26	CCc1nc(C(N)=O)c(Nc2ccc(C3CCN(C)CC3)cc2)nc1N[C@H]1CC[C@H](O)CC1 [Example 387]
